Values quoted from earlier work, collected in patent US20140378500A1, “METHODS FOR PREDICTING TUMOR REPONSE TO TARGETED THERAPIES” (20/20 Gene Systems, Inc., priority 2012, published 2014).

System: HER2 positive breast cancer
Conditions: at the onset of treatment or within a year of treatment; cited from earlier work

Trastuzumab [HERCEPTIN]
proportion of HER2 over-expressing breast cancers refractory, not responding or acquiring resistance: ≥ 30%
